The record followed here is publication PMC6832524, “A Nature-Inspired Design Yields a New Class of Steroids Against Trypanosomatids” (Molecules, 2019).

This series relates to bone marrow polychromatic erythrocytes. The note with it: 50 mg/kg intraperitoneal, positive control; sum in five trials, 5000 PEC observed.

Each structure is given as a SMILES string.

Consider `O=P1(N(CCCl)CCCl)NCCCO1` (stereo not shown) [Cyclophosphamide, reference compound], for which the “Number of MnPE” value is recorded as 180.
